# Binding of CDR-mutated scFvs to a peptide of the spike HR2 region

Reference: Engelhart et al. 2022, doi:10.1038/s41597-022-01779-4. File: FLAb, binding data.

Target: peptide PDVDLGDISGINAS, taken from heptad repeat 2 (HR2) of SARS-CoV-2 spike.

The variants keep the light chain, the linker and the frameworks of Ab-14 (scFv order VH, a (GGGGS)3 linker, VL).
VH: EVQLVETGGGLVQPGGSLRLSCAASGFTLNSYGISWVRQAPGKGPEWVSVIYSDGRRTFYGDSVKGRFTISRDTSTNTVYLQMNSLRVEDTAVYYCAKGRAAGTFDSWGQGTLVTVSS
VL: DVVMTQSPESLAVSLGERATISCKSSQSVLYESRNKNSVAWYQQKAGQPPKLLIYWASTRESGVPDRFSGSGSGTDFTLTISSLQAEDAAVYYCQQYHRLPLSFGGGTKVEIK

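Variants in AAYL49 differ from the parent at up to three CDR positions; double and triple changes were sampled at random. Affinity was read by AlphaSeq, a pooled yeast mating assay with surface-displayed partners. The frequency of each diploid, read from paired DNA barcodes, reflects how well the two displayed proteins bind. A regression on co-assayed BCL2-family reference pairs converts the normalised counts of each replicate to an apparent Kd. The assay was run in three technical replicates.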

Positions count from residue 1 of the parent VH; T28G puts G in place of T.
Affinities are written as log10 Kd with Kd in nM; a lower number is a better binder.
"n.d." means that the variant was in the library but no mating with the target was seen in that replicate; the authors take this as a sign of poor binding, and no number exists.

| # | changes | log10 Kd, replicates | empty controls |
|---|---|---|---|
| 1 | T28G S31V G55F | n.d. / 2.84 / 3.93 | 2/9 (3.46) |
| 2 | N30T F59H S107K | 1.35 / 1.22 / 1.28 | 0/9 |
| 3 | I34P F59Q K65W | n.d. / n.d. / n.d. | 0/9 |
| 4 | S31M S35V | n.d. / n.d. / n.d. | 0/9 |
| 5 | S31Y G99C F105T | n.d. / 3.51 / n.d. | 1/9 (3.75) |
| 6 | V50T I51F G61E | n.d. / n.d. / n.d. | 2/9 (3.96) |
| 7 | I51P R57H A101K | n.d. / n.d. / 3.45 | 1/9 (3.02) |
| 8 | L29H G61P | n.d. / n.d. / n.d. | 0/9 |
| 9 | S53C D62H G99E | n.d. / n.d. / n.d. | 2/9 (4.06) |
| 10 | R57F F59K G61E | n.d. / n.d. / n.d. | 0/9 |
| 11 | S35C K65T G99I | n.d. / n.d. / n.d. | 1/9 (3.44) |
| 12 | V50R G55I A101W | n.d. / n.d. / n.d. | 1/9 (2.12) |
| 13 | S53H D62H G103K | n.d. / n.d. / n.d. | 1/9 (4.81) |
| 14 | T104Q F105T D106R | 1.24 / 1.56 / 1.54 | 1/9 (4.44) |
| 15 | G33V V50Y S107C | n.d. / n.d. / n.d. | 0/9 |
| 16 | N30Q G33F D106Q | n.d. / n.d. / n.d. | 0/9 |
| 17 | N30L T58L Y60V | n.d. / n.d. / n.d. | 0/9 |
| 18 | T28N Y32T G61W | n.d. / n.d. / n.d. | 2/9 (4.16) |
| 19 | Y32E I51W Y60D | n.d. / n.d. / n.d. | 0/9 |
| 20 | T28M N30R R57K | n.d. / n.d. / 3.32 | 2/9 (3.73) |
| 21 | S31Q G99N | -0.21 / 0.10 / -0.10 | 1/9 (2.17) |
| 22 | G55C R100C T104R | n.d. / n.d. / n.d. | 1/9 (3.90) |
| 23 | I51Q R100N G103H | 4.29 / n.d. / n.d. | 1/9 (4.38) |
| 24 | N30R F59S D62N | 2.73 / 1.76 / 2.57 | 1/9 (4.22) |
| 25 | Y32D Y52H D54W | n.d. / n.d. / n.d. | 0/9 |
| 26 | F27Q D54R A102G | 4.36 / n.d. / n.d. | 1/9 (2.44) |
| 27 | D54S T58I F105N | n.d. / n.d. / n.d. | 0/9 |
| 28 | G26H S53E S107R | n.d. / n.d. / n.d. | 0/9 |
| 29 | I34T S107I | 3.39 / n.d. / 3.22 | 5/9 (4.31) |
| 30 | Y52W S53I A102I | n.d. / n.d. / n.d. | 0/9 |
| 31 | F27K S35M | 3.88 / 4.17 / 3.40 | 2/9 (4.68) |
| 32 | S31Y I34T I51T | n.d. / n.d. / n.d. | 0/9 |
| 33 | G55K R100L D106T | 2.34 / n.d. / n.d. | 0/9 |
| 34 | K65G G103P S107P | 2.31 / 2.33 / 3.00 | 1/9 (5.71) |
| 35 | L29E N30C S63D | 3.80 / n.d. / n.d. | 0/9 |
| 36 | T28Q S53Y T104Q | 1.43 / 1.57 / 1.39 | 4/9 (4.20) |
| 37 | Y52Q A101E A102C | n.d. / n.d. / 3.98 | 1/9 (3.19) |
| 38 | L29A Y60R A102E | 4.59 / n.d. / 4.11 | 2/9 (4.42) |
| 39 | S53I T104G | n.d. / n.d. / n.d. | 0/9 |
| 40 | L29G Y52L A102L | n.d. / n.d. / 3.42 | 1/9 (3.62) |
| 41 | G26S Y60H G103E | n.d. / n.d. / n.d. | 0/9 |
| 42 | F59P Y60T | n.d. / 3.36 / 5.52 | 5/9 (4.20) |
| 43 | S35F A101E F105A | n.d. / n.d. / n.d. | 0/9 |
| 44 | N30L D54M F105E | 4.33 / n.d. / n.d. | 4/9 (4.14) |
| 45 | T28W R56M K65G | 4.22 / n.d. / n.d. | 1/9 (4.55) |
| 46 | T28Y V64K A101V | 2.19 / 2.60 / 2.85 | 5/9 (4.09) |
| 47 | I51Y G55F G99I | n.d. / n.d. / n.d. | 0/9 |
| 48 | F27N S31D T58V | 3.36 / 2.15 / 1.56 | 0/9 |
| 49 | I51E S53T D106Q | n.d. / n.d. / n.d. | 1/9 (3.51) |
| 50 | S31Q D62I T104E | n.d. / n.d. / n.d. | 1/9 (3.18) |

Excerpt, the first 7 entries:

| changes | log10 Kd, replicates | empty controls |
|---|---|---|
| T28G S31V G55F | n.d. / 2.84 / 3.93 | 2/9 (3.46) |
| N30T F59H S107K | 1.35 / 1.22 / 1.28 | 0/9 |
| I34P F59Q K65W | n.d. / n.d. / n.d. | 0/9 |
| S31M S35V | n.d. / n.d. / n.d. | 0/9 |
| S31Y G99C F105T | n.d. / 3.51 / n.d. | 1/9 (3.75) |
| V50T I51F G61E | n.d. / n.d. / n.d. | 2/9 (3.96) |
| I51P R57H A101K | n.d. / n.d. / 3.45 | 1/9 (3.02) |

Nonspecific signal, from three strains lacking the peptide, appeared in 15% of pairings of library AAYL49, centred on 4.06 (5% of these signals below 2.83); values are not corrected for it. For each scFv, signals with the empty controls are counted beside the result, with their mean in brackets.